Assay: clinical
Settings: human, plasma, po, 100 mg

Cmax: 0.505 ± 0.12 µg/mL
SMILES: N#C[C@@H]1CCCN1C(=O)CNC12CC3CC(CC(O)(C3)C1)C2 [vildagliptin, (S)-1-[(3-hydroxy-1-adamantyl)amino]acetyl-2-cyano-pyrrolidine]

— US20060210627A1, “Direct compression formulation and process” (priority 2005, published 2006)
